pKi: −log10 of the molar value.
Molecular target: T1, Dimer of Gag-Pol polyprotein [489-587] (Human immunodeficiency virus 1, UniProt P12497)
T1 construct: 489-587
Assay: Protease Inhibition Assay
Conditions: pH 5; 22 °C
Source text: HIV-1 protease was purified and refolded from E. coli inclusion bodies. […] In the presence of HIV-l protease, the substrate is rapidly cleaved into two parts. The biotinylated amino terminal fragment binds to the avidin beads while the FITC-containing carboxy1 terminal fragment is removed through the membrane. […] The bound fluorescence is obtained by processing on an IDEXX Screen Machine. Determination of Ki values with this assay requires analysis under conditions in which substrate concentration resides substantially below Km and the inhibitor concentrations greatly exceeds the Ki value and the enzyme concentration.

Structure (SMILES): O=c1oc2c(c(O)c1[C@H](c1cccc(NS(=O)(=O)c3ccccc3)c1)C1CC1)CCCCCC2 [N-{3-[(S)-cyclopropyl({4-hydroxy-2-oxo-2H,5H,6H,7H,8H,9H,10H-cycloocta[b]pyran-3-yl})methyl]phenyl}benzenesulfonamide]
- pKi: 8.49

— BindingDB's records for doi:10.1021/jm960441m (Upjohn, 1997)
